For the assay, the target named is 5-HT2 receptor (Oryctolagus cuniculus, UniProt G1SYA7). As to the kind of experiment: antagonistic test against 5-HT2 using vessel (thoracic aorta) of rabbit, 5-HT-induced contraction. The note with it: read-out: IC50 (concentration which can inhibit 50% of the contraction caused by 5-HT alone), rabbit thoracic aorta strips, 5-HT 10^-6 M, 30 minutes pre-treatment, 37° C. The arrangement: species or system tissue, rabbit (Japanese white).

Amino acid sequences for entries named in this document (tags omitted). Residues count along the entry.
UniProt G1SYA7, 1-469: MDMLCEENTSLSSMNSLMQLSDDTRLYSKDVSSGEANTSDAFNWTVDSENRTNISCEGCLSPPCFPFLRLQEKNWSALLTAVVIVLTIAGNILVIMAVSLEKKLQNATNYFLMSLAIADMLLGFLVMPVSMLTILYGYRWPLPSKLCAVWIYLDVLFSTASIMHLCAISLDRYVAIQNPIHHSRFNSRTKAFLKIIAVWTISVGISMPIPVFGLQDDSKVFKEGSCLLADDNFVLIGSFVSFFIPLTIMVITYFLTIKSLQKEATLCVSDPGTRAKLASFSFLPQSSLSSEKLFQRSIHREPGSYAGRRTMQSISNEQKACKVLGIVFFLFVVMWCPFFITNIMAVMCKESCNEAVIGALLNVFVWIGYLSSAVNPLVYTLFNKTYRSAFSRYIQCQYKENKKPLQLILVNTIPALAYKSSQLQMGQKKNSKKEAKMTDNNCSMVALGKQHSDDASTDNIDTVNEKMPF

Three molecules from patent publication US5087627A, “Agent for treatment of disorders of the cerebro-neural transmission system” (Santen Pharmaceutical Co., Ltd., priority 1989, dated 1992) can be followed below.

Read-outs that look alike come from different tables or passages of the source. Some compounds may have been tested in ways that are not shown here.

Turning to `COc1ccc(CCN2CCN(C(Cc3ccccc3)c3ccccc3)CC2)cc1OC` (single isomer, unassigned) [compound No. 5], the IC50 (dihydrochloride) worked out at 210 nM.
Regarding `COc1ccc(CCN2CCN(C(Cc3ccccc3)c3ccccc3)CC2)cc1OC` (racemic), the IC50 was 280 nM.
Regarding `COc1ccc(CCN2CCN(C(Cc3ccccc3)c3ccccc3)CC2)cc1OC` (single isomer, unassigned) [compound No. 6], under “dihydrochloride”, the IC50 stood at 2000 nM.
